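The compound was tested at five concentrations on cells cultured in 96-well plates, with a 48-hour exposure period. Abbreviation: GI50, concentration required for 50% inhibition of growth. TGI denotes the concentration required for complete inhibition of growth.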
Tested on: MDA-MB-468 breast
Assay: NCI tumour cell line growth inhibition, 48 h

In the case of `O=[N+]([O-])c1ccc(Nc2ccc(Oc3ccc([N+](=O)[O-])cc3[N+](=O)[O-])cc2)c([N+](=O)[O-])c1`, the GI50 was 11.6 µM and the TGI was 69.7 µM.
